From ChEMBL document CHEMBL5726891, “Serine/threonine kinase inhibitors” (2019)

Chains of the proteins cited; added tags and fusions are not shown.
UniProt P28482, whole entry: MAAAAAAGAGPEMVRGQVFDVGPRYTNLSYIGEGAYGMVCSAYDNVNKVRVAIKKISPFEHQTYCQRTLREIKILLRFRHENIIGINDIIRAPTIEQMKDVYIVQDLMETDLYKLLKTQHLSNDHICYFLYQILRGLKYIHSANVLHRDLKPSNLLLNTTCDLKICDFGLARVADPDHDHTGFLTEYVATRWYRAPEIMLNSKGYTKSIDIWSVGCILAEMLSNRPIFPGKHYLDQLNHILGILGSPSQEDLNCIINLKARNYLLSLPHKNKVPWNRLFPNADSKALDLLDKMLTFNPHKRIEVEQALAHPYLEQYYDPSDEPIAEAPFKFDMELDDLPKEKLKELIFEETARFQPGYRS

Target: Mitogen-activated protein kinase 1 (Homo sapiens, UniProt P28482)
Experiment: Test compounds were diluted in DMSO in 3-fold serial dilutions at 100× final concentrations. […] The data collected from each well was fit to a straight line, and the resulting rates were used to calculate percent of control. Percent of control was plotted against compound concentration, and IC50 values were determined using a four-parameter fit.

IC50: 0.073 nM
SMILES: CN1C(=O)C[C@H](Cc2ccccc2)c2nnc3cc(-c4ccnc(Nc5ccnn5C)c4)cc1n23
